Results: patent publication US7348413B2, “Cancerous disease modifying antibodies” (Arius Research Inc., priority 2004, dated 2008)

Experiments:
Format in all cases: cell-based
[1] = test system: SW1116 colon cancer cell line; assay: Live/Dead cytotoxicity assay of purified antibody; details: 5 days, anti-EGFR 5 μg/mL
Protocol: (§1) AR40A603.13 was compared to a number of both positive (anti-EGFR (C225, IgG1, kappa, 5 μg/mL, Cedarlane, Homby, ON), cycloheximide (CHX, 0.5 μM, Sigma, Oakville, ON), and NaN3 (0.1%, Sigma, Oakville, ON)) and negative (107.3 (anti-TNP), IgG1, kappa, 20 μg/mL, BD Bioscience, Oakville, ON), and IgG Buffer (3%)) controls in a cytotoxicity assay (FIG. 3). Breast (MDA-MB-231 (MB-231), NCI-MCF-7 (MCF-7)), colon (DLD-1, Lovo, SW1116), ovarian (OVCAR-3), pancreatic (BxPC-3), and prostate (PC-3, LnCap, DU-145) cancer, and non-cancer skin (CCD-27sk), and lung (Hs888.Lu) cell lines were tested (all from the ATCC, Manassas, Va.). […] The data was represented as an average of four experiments tested in triplicate and is presented qualitatively in the following fashion: ¾ to 4/4 experiments with >15% cytotoxicity above background (++++), 2/4 experiments with >15% cytotoxicity above background (+++), at least 2/4 experiments with 10-15% cytotoxicity above background (++), at least 2/4 experiments with 8-10% cytotoxicity above background (+), 7% cytotoxicity above background (+/−). Unmarked cells in FIG. 3 represented inconsistent or effects less than the threshold cytotoxicity. […] The chemical cytotoxic agents induced their expected non-specific cytotoxicity.

[2] = test system: BxPC-3 pancreatic cancer cell line; assay: Live/Dead cytotoxicity assay of purified antibody; details: 5 days, anti-EGFR 5 μg/mL
Protocol: as §1

[3] = test system: MCF-7 breast cancer cell line; assay: Live/Dead cytotoxicity assay of purified antibody; details: 5 days, anti-EGFR 5 μg/mL
Protocol: as §1

[4] = test system: panel of cancer and normal cell lines; assay: Live/Dead cytotoxicity assay, panel of cancer and non-cancer cell lines; details: example: non-cancer epidermis derived cell line CCD-27sk
Protocol: as §1

With “anti-EGFR: positive control antibody anti-EGFR (C225, IgG1, kappa, Cedarlane)” the “cytotoxicity relative to isotype and buffer negative controls” value [1] was “not affected”, the “cytotoxicity relative to isotype and buffer negative controls” value [2] was “not affected” and the “cytotoxicity relative to isotype and buffer negative controls” value [3] was “not affected”. For the same substance, the “correlation between binding and cytotoxicity” value [4] was “higher correlation between binding and cytotoxicity”.
